Bioassay records (PubChem BioAssay)
NRP1-CendR mod = alters CendR peptide binding to human NRP-1. O14786. FAM-RPARPAR peptide binding to NRP-1, fluorescence polarization. inhibition, % at 25 µM. 360,000 tested, 0.85% active. AID 602438;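 active = inhibition or corrected inhibition above about 18%, plus a signal ratio from 0.5 to 1.5, limit read from the data, passing the limit was not always enough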
MC4R ag barr = activates human MC4R beta-arrestin recruitment; U2OS MC4R beta-arrestin complementation, luminescence; percent of melanotan II response, DMSO zero; activation, % at 8.9 µM; 360,000 tested, 0.98% active; AID 540308;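 active = activation above a per-plate cutoff, the mean activation of sample wells on that plate plus 3 SD, cut at about 8% in these data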
ASAP1 inh = ASAP1 ArfGAP inhibition; Q9ULH1; ASAP1-stimulated ARF1 GTP hydrolysis, GDP FP detection; 360,000 tested, 0.19% active; inhibition, % at 16.5 µM; in the data active = inhibition above about 25%;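 note: 0% = vehicle with enzyme and substrate and 100% = no enzyme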
Yeast UUG start = modulators of start codon recognition fidelity in yeast; AID 602363; hit rate 0.13% among 350,000; activity score, % at 18.7 µM; S. cerevisiae UUG-firefly luciferase reporter, luminescence/redox ratio;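 active = replicate mean at a twofold rise or more, about +100% in these data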;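 note: firefly luciferase made from a UUG start codon reports start codon fidelity; reporter light over untreated wells divided by growth signal over untreated wells; some hits fall short of that in this replicate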
MC4R antag cAMP = blocks human MC4R cAMP signaling | P32245 | MC4R-expressing cells, MTII-stimulated cAMP, LANCE TR-FRET | inhibition, % at 6.5 µM | 360,000 tested, 0.48% active | AID 540295;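 active = inhibition above its plate's cutoff, the mean of tested wells on that plate plus 3 SD, cut at about 29% in these data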;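 note: 0% = Melanotan II alone and 100% = Melanotan II plus saturating MCL0020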
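Test system: U2OS cells stably expressing human melanocortin 4 receptor (MC4R); also added: Melanotan II challenge; compound: 6.5 µM single dose; timing: 30-min compound preincubation, 1-h Melanotan II challenge, 1-h detection, room temperature; signal: Eu-cAMP/anti-cAMP TR-FRET, emission 671 nm; repeats: one well per compound, no replicates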
ARFGAP1 inh = inhibits rat ARF GTPase activating protein 1. Q62848. Arfgap1-stimulated ARF1 GTP hydrolysis, GDP FP detection. inhibition, % at 16.5 µM. 360,000 tested, 0.26% active;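 active = inhibition above a per-plate limit, mean inhibition of low control wells plus 3 SD, cut at about 25% in these data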;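 note: 0% = DMSO wells with enzyme and 100% = wells lacking Arfgap1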
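system = rat Arfgap1 catalytic domain, aa 1-136 | technique = FP, GDP Alexa 633 tracer displaced from anti-GDP antibody, 620/688 nm | compound = one concentration, 16.5 µM, DMSO 1.26% | medium = HEPES-based buffer, pH 7.5 | timing = compound-enzyme preincubation 20 min, reaction 120 min, detection 60 min, 25 °C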
* = called active by the depositor; . = no result given. The list is not random: actives were taken first. Their share in the collection is about 2.3%.

SMILES	NRP1-CendR mod	MC4R ag barr	ASAP1 inh	Yeast UUG start	MC4R antag cAMP	ARFGAP1 inh
COc1ccccc1NS(=O)(=O)c1ccc(C)c(C(=O)Nc2ccc(S(=O)(=O)Nc3onc(C)c3C)cc2)c1	33*	1	10	-3	12	-9
COc1ccccc1NS(=O)(=O)c1cc(C(=O)Nc2ccc(S(=O)(=O)Nc3onc(C)c3C)cc2)ccc1C	-5	-2	-3	-12	11	5
COc1ccc(C(=O)C2CCCN(C(=O)c3cccc(N(C)C)c3)C2)cc1OC (centres undefined)	25*	-1	3	-8	12	13
C[C@@H]1CN([C@H](C)CO)S(=O)(=O)c2ccc(-c3cccc(F)c3)cc2O[C@@H]1CN(C)S(C)(=O)=O	.	.	.	8	.	.
O=C(C1=NN(c2ccccc2)C2C(=O)N(c3ccccc3)C(=O)C12)c1ccccc1 (centres undefined)	131	-1	-16	.	10	5
O=C(C1=NN(c2ccccc2)C2C(=O)N(c3ccccc3Cl)C(=O)C12)c1ccccc1 (centres undefined)	-25	9.1*	12	-23	14	-3
CC(C)n1c(=O)c2ccccc2n1Cc1cn(Cc2ccccc2)nn1	9	.	8	-13	.	12
c1ccc(SCc2cn(C[C@H]3CC[C@@H]([C@@H]4CC[C@H](Cn5cc(CSc6ccccc6)nn5)O4)O3)nn2)cc1	24*	-2	2	-17	2	-11
c1ccc(Cn2cc(CSc3ccccc3)nn2)cc1	28*	-1	-11	-14	6	3
C[C@@H]1CN([C@H](C)CO)C(=O)c2ccccc2-c2ccccc2CO[C@@H]1CN(C)S(=O)(=O)c1ccc(F)cc1	.	.	.	-3	.	.
O=C(Cc1cccc([N+](=O)[O-])c1)Nc1cccc(C(=O)N2CCOCC2)c1	7	0	19	1	-3	-2
O=C(Nc1cccc(C(=O)N2CCOCC2)c1)c1ccc([N+](=O)[O-])cc1	19*	-4	-18	2	-4	4
O=C(COc1ccc(Cl)cc1Cl)N/N=C/c1cccnc1	14	-3	1	-3	-3	2
COc1ccc(/C=N/NC(=O)COc2ccc(Cl)cc2Cl)cc1Cn1nc(C)cc1C	3	18*	-7	.	-3	4
O=C(Nc1ccc(-c2nnc3n2CCCCC3)cc1)c1ccco1	34*	-2	3	-19	5	1
O=C(Nc1ccc(-c2ccc(N3CCCCC3)nn2)cc1)c1ccco1	0	-3	0	-12	4	-6
O=C(NCCCN1CCOCC1)C1CC(=O)N(CCc2ccccc2)C1 (centres undefined)	1	-1	-8	-13	1	-10
O=C(NCCCN1CCCCCC1)C1CC(=O)N(CCc2ccccc2)C1 (centres undefined)	23*	0	-13	-2	3	6
Cc1nc(SCC(=O)N2CCOCC2)c2c(=O)n(C)c(=O)n(CC(C)C)c2n1	24*	-2	-9	7	5	6
O=C(CN1CCC(C(O)(c2ccccc2)c2ccccc2)CC1)Nc1cc(Cl)ccc1Cl	7	8	3	-8	32*	9
O=C(CN1CCC(C(O)(c2ccccc2)c2ccccc2)CC1)Nc1ccccc1	-14	0	9	-3	4	1
Cc1nc2ccc(S(=O)(=O)NCC(=O)NC(C)c3ccccc3)cc2s1 (centres undefined)	14	0	-6	.	1	8
Cc1nc2ccc(S(=O)(=O)NCC(=O)N(C)Cc3ccccc3)cc2s1	26*	-1	5	.	-2	-1
O=C(Nc1ccc(Cl)cc1)c1cc(S(=O)(=O)Nc2ccccn2)ccc1Cl	24*	-2	0	.	2	1
COc1cc(NC(=O)c2ccccc2F)ccc1NC(=O)c1cc2ccccc2o1	-6	8.8*	10	-16	1	-6

Three entries from above, in markdown.
| structure | NRP1-CendR mod | MC4R ag barr | ASAP1 inh | Yeast UUG start | MC4R antag cAMP | ARFGAP1 inh |
| --- | --- | --- | --- | --- | --- | --- |
| O=C(CN1CCC(C(O)(c2ccccc2)c2ccccc2)CC1)Nc1ccccc1 | -14 | 0 | 9 | -3 | 4 | 1 |
| Cc1nc2ccc(S(=O)(=O)NCC(=O)NC(C)c3ccccc3)cc2s1 (centres undefined) | 14 | 0 | -6 | . | 1 | 8 |
| Cc1nc2ccc(S(=O)(=O)NCC(=O)N(C)Cc3ccccc3)cc2s1 | 26* | -1 | 5 | . | -2 | -1 |

Next part.
SMILES	NRP1-CendR mod	MC4R ag barr	ASAP1 inh	Yeast UUG start	MC4R antag cAMP	ARFGAP1 inh
CC1CN(c2nc3c(c(=O)[nH]c(=O)n3C)n2Cc2ccccc2F)CC(C)O1 (centres undefined)	6	-2	-2	5	2	-3
Cn1c(=O)[nH]c(=O)c2c1nc(N1CCOCC1)n2CCCSc1ncccn1	22*	-1	14	-1	-1	-5
CC(C)CCn1c(N2CCC(C(N)=O)CC2)nc2c1c(=O)[nH]c(=O)n2C	2	-1	10	8	-2	3
CC(C)CCn1c(N2CCCC2)nc2c1c(=O)[nH]c(=O)n2C	24*	-1	-3	-10	0	0
CCN1CCN(c2nc3c(c(=O)[nH]c(=O)n3C)n2Cc2ccccc2F)CC1	30*	0	-7	-7	5	8
Cc1cccc(Cn2nc(C(C)(C)C)cc2C(=O)Nc2ccc(F)cc2)c1	-7	8.5*	0	-4	5	10
COCC(=O)N(C)C[C@@H]1Oc2ncc(-c3ccc(C)cc3)cc2C(=O)N([C@H](C)CO)C[C@@H]1C	.	.	.	0	.	.
CC(Sc1nc2ccccc2s1)C(=O)NCc1ccc2c(c1)OCO2 (centres undefined)	2	0	1	.	1	1
Cc1csc(SC(C)C(=O)NCc2ccc3c(c2)OCO3)n1 (centres undefined)	26*	1	-9	-20	-1	19
COc1ccccc1CCn1cc(C#N)c(=O)[nH]c1=O	12	-1	1	-23	4	11
Cc1ccc(C(=O)OCCn2cc(C#N)c(=O)[nH]c2=O)cc1	27*	2	-4	.	-3	9
Cc1ccc(S(=O)(=O)N(C)Cc2ccc(C(=O)N/N=C/c3ccc(OC(F)F)cc3OC(F)F)cc2)cc1	31*	-2	6	20	2	6
O=C(N/N=C/c1ccc(OC(F)F)cc1OC(F)F)c1ccc(Br)cc1	7	-1	1	-20	5	-7
CC(C)CC#Cc1cnc2c(c1)C(=O)N([C@@H](C)CO)C[C@@H](C)[C@@H](CN(C)C(=O)Nc1ccccc1F)O2	.	.	.	11	.	.
Cc1ccc(NC(=O)COc2ncnc3c(Cl)cc(Cl)cc23)cc1[N+](=O)[O-]	25*	0	-8	.	4	-9
COc1ccc(-c2cn(CC[C@@H]3CC[C@H](NC(=O)Cc4ccccn4)[C@H](CO)O3)nn2)cc1	.	.	.	-2	.	.
Cc1sc(NC(=O)CSc2nnc3scc(-c4ccccc4)n23)c(C#N)c1C	1	16*	-15	-9	6	0
CC1=C(C(=O)OCc2ccccc2)C(c2ccc([N+](=O)[O-])cc2)NC(=O)N1CCCCCC(=O)O (centres undefined)	2	0	-3	-3	6	-9

Already shown: an excerpt of the list.
SMILES	NRP1-CendR mod	MC4R ag barr	ASAP1 inh	Yeast UUG start	MC4R antag cAMP	ARFGAP1 inh
CC1CN(c2nc3c(c(=O)[nH]c(=O)n3C)n2Cc2ccccc2F)CC(C)O1 (centres undefined)	6	-2	-2	5	2	-3
Cn1c(=O)[nH]c(=O)c2c1nc(N1CCOCC1)n2CCCSc1ncccn1	22*	-1	14	-1	-1	-5
